Values of other authors in patent US20180273780A1, “WATER-BASED INK COMPOSITION FOR INK JET RECORDING AND COLORING MATERIAL LIQUID” (Seiko Epson Corporation, priority 2017, published 2018).

water-octanol partition coefficient (log P): 2.5
Substance: ethylhexyl glycerin
